Results taken from publication PMC6397219, “Rapid one-step ^18F-radiolabeling of biomolecules in aqueous media by organophosphine fluoride acceptors” (Nature Communications, 2019).

Assay: Biodistribution of 18F-DBPOF-HSA in rats
Format: in vivo, rat

“18F-DBPOF-HSA: 18F-labeled human serum albumin for blood pool imaging” gave an SUV in blood (0.5 h) of 1.4 ± 0.7 and an SUV in blood (1 h) of 1.0 ± 0.1.
